For this series, the system named is CWR22Rv1 (PSMA+) tumor xenografts. Kind of series: PET imaging and biodistribution in CWR22Rv1 (PSMA+) tumor xenograft mice.

The compound `O=C(O)CCC(NP(=O)(O)OCCCC(NC(=O)CCC(NC(=O)CCCCCNC(=O)c1ccc([18F])cc1)C(=O)O)C(=O)O)C(=O)O` (centres unmarked) [[18F]CTT1057] had a Kidneys uptake (ex vivo biodistribution Example 14, 1 h) of 18.12±2.21 % ID/g and a Kidneys uptake (ex vivo biodistribution Example 14, 4 h) of 17.17±4.13 % ID/g.

The values are drawn from patent US20250375542A1, “18F-LABELED PSMA-TARGETED PET IMAGING AGENTS” (Cancer Targeted Technology LLC, priority 2013, published 2025).
